Results: PubChem BioAssay AID2524 (Sanford-Burnham Center for Chemical Genomics, 2010)
The list shows a part of the results, in another mix than the full data. Active and inactive are the calls of the source.

The chains behind the UniProt entries cited, without tags or fusion partners.
UniProt P09923, whole entry: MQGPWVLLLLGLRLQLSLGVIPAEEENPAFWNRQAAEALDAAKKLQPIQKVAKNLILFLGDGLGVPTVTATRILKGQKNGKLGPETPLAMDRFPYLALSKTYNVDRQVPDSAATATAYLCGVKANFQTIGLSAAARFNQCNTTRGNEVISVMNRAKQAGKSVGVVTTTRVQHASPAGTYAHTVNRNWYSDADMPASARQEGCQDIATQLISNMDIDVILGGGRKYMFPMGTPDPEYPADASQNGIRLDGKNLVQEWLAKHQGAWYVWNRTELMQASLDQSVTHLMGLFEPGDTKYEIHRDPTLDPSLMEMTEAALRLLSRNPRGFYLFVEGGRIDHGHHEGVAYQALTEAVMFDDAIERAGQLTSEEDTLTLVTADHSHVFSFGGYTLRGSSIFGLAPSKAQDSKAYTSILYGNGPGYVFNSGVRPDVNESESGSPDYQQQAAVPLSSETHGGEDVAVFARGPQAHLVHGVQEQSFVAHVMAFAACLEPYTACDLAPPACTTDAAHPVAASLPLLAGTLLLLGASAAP

Each compound was assayed against Intestinal-type alkaline phosphatase (Homo sapiens) (UniProt P09923) (assay: human IAP activators, primary screen, biochemical, luminescence, uHTS (AID 2524)). Settings: purified human IAP, CDP-Star luminescence, 30 min; at 10 µM; hits give high values; 1 = vehicle-only enzyme, 0 = enzyme-free background.

Structure (SMILES) | activation factor
CCC(=O)N(c1ccccc1)C1(COC)CCN(CCc2cccs2)CC1 | inactive: 1.12
CCC(=O)N(c1ccccc1)C1(COC)CCN(CCn2nnn(CC)c2=O)CC1 | inactive: 0.965
